Data taken from PubChem BioAssay AID1825 (The Scripps Research Institute Molecular Screening Center, 2009).
“And” between values parts separate entries of the source, which are not always exact repeats. Equal values may be shown once. This is a selection; strong and weak results do not stand in their true shares. The source made the active and inactive calls. Cut-off read from the data, not from the text of the source: active = inhibition above about 22%; inactive = the rest.

Assay: cytotoxicity in IEC-6 intestinal epithelial cells, primary screen, cytotoxicity control for KLF5 inhibitor project, cell-based, luminescence (AID 1825);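 note: 0% = plate median of test compound wells and 100% = cytotoxic reference compound wells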
Conditions: IEC-6 cytotoxicity, luminescence viability; at 5 µM; stronger effect = higher value

Structure (SMILES)	inhibition
CC(C)(C)C(=O)NC(Sc1ccncn1)C(Cl)(Cl)Cl (centres undefined)	inactive: 1.2%
O=[N+]([O-])c1ncn(CCn2ncnc2[N+](=O)[O-])n1	inactive: -0.2%
O=[N+]([O-])c1cccc(NC2=NCC(CBr)S2)c1 (centres undefined)	inactive: -2.2%
O=C(O)CNc1ccc([As](=O)(O)O)cc1	inactive: -2.05%
O=C(Nc1cc([As](=O)(O)O)ccc1O)c1ccccc1	inactive: -6.75%
Nc1ccc([As](=O)(O)c2ccc(N)cc2)cc1	inactive: -3.6%
C[N+]1=C2C=CC=CC=C2SC12C([N+](=O)[O-])=CC([N+](=O)[O-])=C[C-]2[N+](=O)[O-] (centres undefined)	active: 54.6%
CCN(/C(=N/P(=O)(N1CCOCC1)N1CCOCC1)N1CCOCC1)c1ccc(OC)cc1	inactive: 5%
CC(C)=N/N=C(\N)N[N+](=O)[O-]	inactive: -0.6%
CN(C)C(=O)OCCc1n(C)cc[n+]1C	inactive: 4.6%
CC1CCN(C(=O)Oc2c(Cl)cc(Cl)c3cccnc23)CC1	inactive: 11.2%
COc1ccc(C2=NCC(CBr)S2)cc1 (centres undefined)	inactive: -3.8%
CC(=O)N1C2C3N(C(C)=O)C1C1N(C(C)=O)C(C(N1C(C)=O)N3C(C)=O)N2C(C)=O	inactive: 0.2%
O=[N+]([O-])c1cccc2n[nH]nc12	inactive: -0.8%
Cc1ccc(NP(=O)(Oc2ccccc2)Oc2ccccc2)nc1	inactive: -2%
O=[N+]([O-])c1cc([N+](=O)[O-])c(CCNc2ccccc2)c([N+](=O)[O-])c1	inactive: 3%
CCc1nc2c(n1)c1c(non1O)c1c2no[n+]1[O-]	inactive: 6.9%
Nc1cc(N)c2nonc2c1[N+](=O)[O-]	inactive: -7.6%
CC(C)CC(=O)NC(Sc1ccc(Cl)cc1)C(Cl)(Cl)Cl (centres undefined)	inactive: -5.6%
Oc1ccccc1CNc1ccccn1	inactive: -14.1%
O=C(NC(Sc1ccncn1)C(Cl)(Cl)Cl)c1ccccc1 (centres undefined)	inactive: 2.4%
Cc1c2non([O-])c-2c(C)[n+](=O)[n+]1[O-]	inactive: -4.7%
NC(=O)c1cc([N+](=O)[O-])cc([N+](=O)[O-])c1N	inactive: 3.7%
Cc1ccc(N/C(=N/P(=O)(N2CCOCC2)N2CCOCC2)N2CCOCC2)cc1	inactive: -3.9%
COc1ccccc1OP(=O)(Nc1ccc(C)cn1)Oc1ccccc1OC	inactive: 10.2%
Cc1ccc(OP(=O)(Nc2nccs2)Oc2ccc(C)cc2)cc1	inactive: -4%

Structure (SMILES)	inhibition
CN1CCCC(OC(=O)C(c2ccccc2)c2ccccc2)C1 (centres undefined)	inactive: -4.2%
Clc1ccc(Cl)c(NC2=NCC(CBr)S2)c1 (centres undefined)	inactive: -3.2%
O=[N+]([O-])c1cc([N+](=O)[O-])c(CCN2CCOCC2)c([N+](=O)[O-])c1	inactive: -8.6%
CCN(N=Nc1nonc1N)c1nonc1N	inactive: 0.8%
Nc1cccc2ccc([As](=O)(O)O)cc12	inactive: -19%
CC(=O)Nc1ccc([As](=O)(O)O)cc1	inactive: 1.45%
O=C(O)c1ccccc1[As](=O)(O)O	inactive: -3.6%
O=P(Nc1nc2ccc(Cl)cc2s1)(c1ccccc1)c1ccccc1	inactive: 3.1%
Cc1cc(SC(NC(=O)c2ccc(F)cc2)C(Cl)(Cl)Cl)ncn1 (centres undefined)	inactive: 2.1%
CCOP(=O)(Nc1ccccc1)OCC	inactive: -5.8% and inactive: -1.6%
Cc1ccc(NP(=O)(Oc2ccccc2F)Oc2ccccc2F)nc1	inactive: 5%
COC(=O)c1cc2c(s1)N=C(c1ccccc1)N(C)P2(=O)N1CCOCC1 (centres undefined)	inactive: -6.1%
CC(=O)NC(SC(=S)N(CC(C)C)CC(C)C)C(Cl)(Cl)Cl (centres undefined)	inactive: 6%
O=C(OC1CN2CCC1CC2)c1ccccc1 (centres undefined)	inactive: -2.9%
CCC(=O)N1C2C3N(C(=O)CC)C1C1N(C(=O)CC)C(C(N1C(=O)CC)N3C(=O)CC)N2C(=O)CC	inactive: 3%
Cc1ccccc1OP(=O)(Nc1ccccn1)Oc1ccccc1C	inactive: -0.9%
O=c1c2cc([N+](=O)[O-])ccc2[nH]c2c([N+](=O)[O-])cc([N+](=O)[O-])cc12	inactive: -0.6%
CN(C)C(=O)Oc1noc2ccccc12	inactive: -5.4%
O=C(NC1CCS(=O)(=O)C1)NP(=S)(Oc1ccccc1)Oc1ccccc1 (centres undefined)	inactive: 4.7%
CCNC(=S)/N=C(\N)N[N+](=O)[O-]	inactive: -5.9%
c1ccc(-c2nn[nH]n2)c(-c2nn[nH]n2)c1	inactive: -10.3%
CCOC(=O)NC(Sc1ccccc1)C(Cl)(Cl)Cl (centres undefined)	inactive: -5.9%
Cc1ccc(NP(=O)(Oc2cccc(C)c2)Oc2cccc(C)c2)nc1	inactive: 3.7%
CC(=O)c1ccc(N2CC2c2ccncc2)cc1 (centres undefined)	inactive: -1.5%
CC(=O)Nc1ccc([As](=O)(O)O)c(O)c1	inactive: 6.4%
CC(=O)Nc1ccc(Oc2c([N+](=O)[O-])cc([N+](=O)[O-])cc2[N+](=O)[O-])cc1	inactive: 2.3%

Structure (SMILES)	inhibition
O=P1(Nc2nc3ccc(Cl)cc3s2)COc2ccccc2O1 (centres undefined)	inactive: 7.3%
CCOc1ccc(C2=NCC(CBr)S2)cc1 (centres undefined)	inactive: 2.2%
CC(C)(C)C(=O)NC(Sc1ccccc1)C(Cl)(Cl)Cl (centres undefined)	inactive: 5.6%
O=P(Nc1nccs1)(c1ccccc1)c1ccccc1	inactive: 7.3%
CC(C)C(=O)NC(Sc1ccccc1)C(Cl)(Cl)Cl (centres undefined)	inactive: 2.9%
c1nnnn1CCn1cnnn1	inactive: -4.9%
O=[N+]([O-])c1ncn(CCn2cnc([N+](=O)[O-])n2)n1	inactive: -3.7%
CC(=O)NC(SC(=S)N(C)C)C(Cl)(Cl)Cl (centres undefined)	inactive: 0.1%
O=[N+]([O-])c1ccc(O)c(/C=N/Nc2ccc([N+](=O)[O-])cc2[N+](=O)[O-])c1	inactive: -13.9%
O=[As](O)(c1ccccc1)c1ccc(O)cc1	inactive: -2.6%
C(Cc1nn[nH]n1)Cc1nn[nH]n1	inactive: -6.8%
Nc1ccc([As](=O)(O)c2ccc([N+](=O)[O-])cc2)cc1	inactive: 4.2%
O=C(OC1CN2CCC1CC2)c1cccc(Cl)c1 (centres undefined)	inactive: 1%
CN(C)C1(CNC(=O)c2ccc(Cl)c(S(N)(=O)=O)c2)CCCCC1	inactive: -1.5%
O=P(Nc1ccccn1)(c1ccc(Br)cc1)c1ccc(Br)cc1	inactive: 3.4%
O=P(Nc1nc2ccccc2s1)(c1ccccc1)c1ccccc1	inactive: 4.5%
O=P1(Nc2ncccn2)COc2ccccc2OC1	inactive: -3.5%
O=[As](O)(c1cccs1)c1cccs1	inactive: -2.35%
Cc1ccc(OCC(=O)OC2CN3CCC2CC3)cc1 (centres undefined)	inactive: -0.4%
O=P1(Nc2ccc(Br)cn2)COc2ccccc2OC1	inactive: 0.1%
Nc1cccc([As](=O)(O)c2ccccc2)c1	inactive: -2.8%
Cc1nn(-c2ccccc2)c2c1P(=O)(N1CCOCC1)N(C)C(c1ccccc1)=N2 (centres undefined)	inactive: 2.2%
Cc1ccc(C(=O)OC2CN3CCC2CC3)cc1 (centres undefined)	inactive: -1.7%
CC1CCC(C(C)C)C(OP(=O)(Nc2ccccn2)c2ccccc2)C1 (centres undefined)	inactive: 3.1%
O=C(/C=C/c1ccccc1)OC1CN2CCC1CC2 (centres undefined)	inactive: 5.1%
CN(C)C1(CNC(=O)c2ccc(S(C)(=O)=O)cc2)CCCCC1	inactive: 1.6%

Structure (SMILES)	inhibition
O=[As](O)(c1ccccc1Br)c1ccccc1Br	inactive: 2.25%
CC1(CBr)Cn2c(nc3ccccc3c2=O)S1 (centres undefined)	inactive: 0.7%
CN(C(=O)Cc1ccc(Cl)c(Cl)c1)[C@@H]1CCCC[C@H]1N1CCCC1	inactive: -5.9%
CC(C)/C=N\N=C(\N)N[N+](=O)[O-]	inactive: -0.6%
CCOP(=O)(Nc1ccc(C)cn1)OCC	inactive: -0.45%
CCC1=CC2Cc3nc4ccc(Cl)cc4c(N)c3C(C1)C2 (centres undefined)	inactive: 6.3%
O=P1(Nc2ccccn2)COc2ccccc2OC1	inactive: -8.8%
CCOP(=O)(NC(=NC(C)c1ccccc1)NC(C)c1ccccc1)OCC (centres undefined)	inactive: 0.2%
Clc1n[nH]nc1-c1nn[nH][15n]1	inactive: 4.1%
CC(C)(C)C(=O)NC(Sc1ncccn1)C(Cl)(Cl)Cl (centres undefined)	inactive: -8.7%
CCCOP(=S)(Nc1nc(N)cc(=O)[nH]1)OCCC	inactive: -5.7%
Nc1cccc2c([As](=O)(O)O)cccc12	inactive: -10.2%
Cc1ccc(NCCc2c([N+](=O)[O-])cc([N+](=O)[O-])cc2[N+](=O)[O-])cc1	inactive: -5.4%
COc1cc(C2NCCC3(OCCO3)C2(C)C)cc(OC)c1OC (centres undefined)	inactive: -0.9%
CCOP(=O)(Nc1cccc2ccccc12)OCC	inactive: 2%
O=[As](O)(O)c1cccnc1	inactive: -1.1%
COc1cc(C(=O)NCC2(N3CCOCC3)CCCCC2)cc(Cl)c1OC(C)C	inactive: -8.7%
CS(=O)(=O)c1ccc(Cl)c(NC(=O)COC(=O)C(O)(c2ccccc2)c2ccccc2)c1	inactive: -3%
O=C(OC1CN2CCC1CC2)c1ccc(Cl)cc1 (centres undefined)	inactive: -6.2%
Cc1cccc(OCC(=O)OC2CN3CCC2CC3)c1 (centres undefined)	inactive: 4.5%
O=[As](O)(c1cccc(O)c1)c1cccc(O)c1	inactive: 2.2%
O=[N+]([O-])c1ccc2c(c1)nnn2O	inactive: 1%
CCOP1(=S)c2c(C)nn(CCC#N)c2N=C(c2ccc(F)cc2)N1C (centres undefined)	inactive: -2.1%
CS(=O)(=O)c1cc([N+](=O)[O-])c2no[n+]([O-])c2c1	inactive: 0%
CCOP1(=S)c2c(C)nn(CCC#N)c2N=C(c2ccccc2F)N1C (centres undefined)	inactive: 0.2%
O=P(Nc1nccs1)(Oc1ccccc1)Oc1ccccc1	inactive: -0.3%
